These results are taken from the Kinase Knowledgebase extract (Sharma et al. 2016).

Amino acid sequences for entries named in this document (tags omitted).
UniProt P00533, whole entry, looked up: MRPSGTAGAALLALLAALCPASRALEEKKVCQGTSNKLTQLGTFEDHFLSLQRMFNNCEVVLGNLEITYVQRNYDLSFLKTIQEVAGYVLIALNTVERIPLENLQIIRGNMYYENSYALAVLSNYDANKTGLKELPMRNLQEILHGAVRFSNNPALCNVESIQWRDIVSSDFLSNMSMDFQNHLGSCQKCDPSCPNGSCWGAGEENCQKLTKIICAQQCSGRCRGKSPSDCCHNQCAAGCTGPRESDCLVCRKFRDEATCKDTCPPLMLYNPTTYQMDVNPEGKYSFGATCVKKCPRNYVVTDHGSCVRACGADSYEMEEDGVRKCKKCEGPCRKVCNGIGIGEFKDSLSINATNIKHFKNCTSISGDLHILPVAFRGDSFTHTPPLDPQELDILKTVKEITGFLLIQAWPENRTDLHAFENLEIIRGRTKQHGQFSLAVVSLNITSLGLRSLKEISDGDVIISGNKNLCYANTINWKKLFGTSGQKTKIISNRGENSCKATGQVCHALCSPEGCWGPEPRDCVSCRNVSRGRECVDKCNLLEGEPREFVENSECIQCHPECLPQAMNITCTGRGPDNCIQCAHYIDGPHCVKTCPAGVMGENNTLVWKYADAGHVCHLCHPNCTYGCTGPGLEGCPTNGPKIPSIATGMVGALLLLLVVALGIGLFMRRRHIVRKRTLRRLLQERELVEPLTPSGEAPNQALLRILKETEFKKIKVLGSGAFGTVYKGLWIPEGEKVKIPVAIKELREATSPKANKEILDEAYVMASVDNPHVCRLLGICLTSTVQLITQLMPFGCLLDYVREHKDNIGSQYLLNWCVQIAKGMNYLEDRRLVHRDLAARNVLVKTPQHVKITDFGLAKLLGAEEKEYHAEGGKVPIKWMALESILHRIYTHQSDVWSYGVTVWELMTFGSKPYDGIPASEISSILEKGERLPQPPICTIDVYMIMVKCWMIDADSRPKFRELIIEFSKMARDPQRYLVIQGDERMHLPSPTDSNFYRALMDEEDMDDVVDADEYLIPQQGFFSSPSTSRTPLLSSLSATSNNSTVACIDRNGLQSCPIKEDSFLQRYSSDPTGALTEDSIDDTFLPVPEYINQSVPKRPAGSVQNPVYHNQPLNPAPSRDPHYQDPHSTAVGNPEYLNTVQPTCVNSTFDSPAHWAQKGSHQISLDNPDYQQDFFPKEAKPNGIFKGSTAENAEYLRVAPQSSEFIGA

pIC50: −log10 of the molar value.

In experiment [1] the target is EGFR (human) (UniProt P00533). The following applies: A431.
The target in experiment [2] is EGFR (human) (UniProt P00533). The following applies: a431.
In experiment [3] the target is EGFR (human) (UniProt P00533). The following applies: a431. This is another data set of the same source.

By pIC50 is commonly meant the negative decadic logarithm of the IC50, by convention in mol/L. The low end stands for a large IC50, the high end for a small IC50. For `COc1cc2ncnc(Nc3cccc(Cl)c3)c2cc1OC`, the pIC50 is 8.57 in experiment [1], 7.05 in experiment [2] and 5.29 in experiment [3].
